Measured values reported in patent US20100256086A1, “NON-HYDROLYZABLE NUCLEOSIDE DI- OR TRI-PHOSPHATE DERIVATIVES AND USES THEREOF” (priority 2007, published 2010).
Like-named read-outs stand apart in the source and are kept apart here.

By UniProt entry, the sequences of proteins in these tests, tags left out. Where a name states a change or a piece, a line headed by the entry shows the natural chain unless it says otherwise.
UniProt P49652: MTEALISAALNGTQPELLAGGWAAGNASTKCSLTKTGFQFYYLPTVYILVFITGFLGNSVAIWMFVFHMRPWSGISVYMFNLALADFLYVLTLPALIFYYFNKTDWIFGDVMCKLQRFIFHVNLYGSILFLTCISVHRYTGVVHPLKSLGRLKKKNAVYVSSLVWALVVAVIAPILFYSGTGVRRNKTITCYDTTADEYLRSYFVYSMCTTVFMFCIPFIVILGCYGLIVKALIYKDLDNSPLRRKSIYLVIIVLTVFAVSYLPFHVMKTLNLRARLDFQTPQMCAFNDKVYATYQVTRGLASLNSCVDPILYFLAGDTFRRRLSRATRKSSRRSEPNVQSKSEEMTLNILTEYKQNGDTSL

Target: T1, turkey P2Y1 (Meleagris gallopavo, UniProt P49652)
T1 construct: expressed in transfected cells
Test: Intracellular calcium measurement ([Ca2+]i, fura-2) in 1321N1 astrocytoma cells
Assay type: cell-based
Method: Human 1321N1 astrocytoma cells stably expressing the turkey P2Y1, human P2Y2, human P2Y4 or rat P2Y6 were grown in Dulbecco's modified Eagle's medium containing 5% (v/v) fetal bovine serum, 100 units/ml penicillin, 100 μg/ml streptomycin and 500 μg/ml Geneticin (G-418, Life Technologies, Inc). Changes in the intracellular free calcium concentration, [Ca^2+]i were detected by dual-excitation spectrofluorometric analysis of cell suspensions loaded with fura-2, as previously described (Garrad et al., 1998; Grynkiewicz et al., 1985). Cells were assayed in 10 mM Hepes-buffered saline (pH 7.4) containing 1 mM CaCl2 and 1 mM MgCl2. The cells were pelleted in a microfuge and resuspended in 2 ml of buffer. Concentration-response data were analyzed with the Prism curve fitting program (GraphPAD Software, San Diego, Calif.). Three experiments were conducted on separate days for each P2Y receptor subtype.
The activities of compounds 2, 4B, 17, 18, 19A, 21 (isomers A and B) were examined at the G protein-coupled P2YRs, P2Y1, P2Y2, P2Y4 and P2Y6 expressed in human 1321N1 astrocytoma cells, based on intracellular calcium measurements, as described in Experimental above. In particular, the activity of compound 2, 4B and 19 was examined at P2Y1R, P2Y2R, P2Y4R and P2Y6R, and the activity of compounds 17, 18 and 21 was examined at P2Y1R only. The experiments were conducted by Prof. […]

Compound: CSc1nc(N)c2ncn([C@@H]3O[C@H](COP(=O)(O)OP(=O)(O)O)[C@@H](O)[C@H]3O)c2n1 [Compound 2-MeS-ADP, 2-MeS-ADP, reference compound]
- EC50 (human 1321N1 astrocytoma cells expressing turkey P2Y1, read-out: Compound-induced activation of [Ca2+] EC50, P2Y1): 4 nM
- EC50 (printed in nM in text, read-out: EC50 at P2Y1R): 4 nM
